Laboratory results as given in patent US20160331743A1, “PHARMACEUTICAL COMPOSITIONS COMPRISING IMIQUIMOD FOR USE IN THE TREATMENT OF CARCINOMA IN SITU OF THE BLADDER” (UROGEN PHARMA LTD, priority 2014, published 2016).

Tested on: carcinoma in situ (CIS) bladder cancer
Conditions: Patient 2, after imiquimod treatment; imiquimod 0.4%, 50 mL intravesical, once weekly for 6 weeks

Structure (SMILES): CC(C)Cn1cnc2c(N)nc3ccccc3c21 [imiquimod, 1-Isobutyl-1H-imidazo[4,5-c]quinolin-4-amine]
- Ratio of malignant to non-malignant cells: seems to be improved
